Test results: PubChem BioAssay AID743247 (Broad Institute, 2014)
The entries are a selection whose mix differs from that of the whole data set. Active and inactive are the calls of the source.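 The calls were made as follows: active = mean inhibition across replicates of 30% or more, regardless of how many single replicates reach that level; inconclusive = mean under 30% yet at least half of replicates reach 30%; inactive = the rest.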

Assay: inhibitors of fibronectin matrix deposition, primary screen, AH1F cells, Alexa488-fibronectin fluorescence, plate reader (AID 743247);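 also: positive control wells lacked labelled fibronectin entirely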
Details: AH1F fibroblasts, overnight, at 12.6 µM, hits give high values
Summary of the method: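 Assay system: AH1F fibroblasts / Quantity: 10000 cells per well / Medium: DMEM plus 2% serum, read in PBS / Reagent: labelled fibronectin 24 nM / Dosing: single dose, pinned / Times: 1 h cell attachment, overnight exposure to compound and label / Signal: fluorescence, ex 485 nm, em 525 nm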

SMILES	inhibition
O=P(Nc1ccccn1)(c1ccc(Br)cc1)c1ccc(Br)cc1	inactive: 2.49%
O=P(Nc1nc2ccccc2s1)(c1ccccc1)c1ccccc1	inactive: 9.46%
C[C@H]1OP(=O)(Oc2ccccc2)[C@H](O)[C@H](O)[C@H]1N=[N+]=[N-] (some centres undefined)	inactive: 0.968%
O=P1(Nc2ncccn2)COc2ccccc2OC1	inactive: -7.7%
Cc1ccc(S(=O)(=O)N(CCCN)CCCc2c(C)nc(N)[nH]c2=O)cc1	inactive: 4.6%
O=[As](O)(c1cccs1)c1cccs1	inactive: 4.29%
Cc1ccc(OCC(=O)OC2CN3CCC2CC3)cc1 (centres undefined)	inactive: 17%
NS(=O)(=O)c1cccc(NC(=O)COC(=O)C(O)(c2ccccc2)c2ccccc2)c1	inactive: -1.97%
O=P1(Nc2ccc(Br)cn2)COc2ccccc2OC1	inactive: -10.9%
Nc1cccc([As](=O)(O)c2ccccc2)c1	inactive: -13.7%
Cc1ccc(C(=O)OC2CN3CCC2CC3)cc1 (centres undefined)	inactive: 3.15%
CC1CCC(C(C)C)C(OP(=O)(Nc2ccccn2)c2ccccc2)C1 (centres undefined)	inactive: -5.33%
O=C(/C=C/c1ccccc1)OC1CN2CCC1CC2 (centres undefined)	inactive: -7.09%
CCCC1OP(=O)(Nc2ccccc2)OCC1CC (centres undefined)	inactive: -19.3%
CN(C)C1(CNC(=O)c2ccc(S(C)(=O)=O)cc2)CCCCC1	inactive: 2.56%
COc1ccccc1CNC(=O)COC(=O)C(O)(c1ccccc1)c1ccccc1	inactive: 1.95%
CN(C(=O)Cc1ccc(Cl)c(Cl)c1)[C@@H]1CCCC[C@H]1N1CCCC1	inactive: -0.754%
CC(C)/C=N\N=C(\N)N[N+](=O)[O-]	inactive: 12.5%
CCOP(=O)(Nc1ccc(C)cn1)OCC	inactive: -14.5%
CN(CCCl)Cc1cc(Cl)c(NC2=NCCN2)c(Cl)c1	inactive: -0.94%
CCC1=CC2Cc3nc4ccc(Cl)cc4c(N)c3C(C1)C2 (centres undefined)	inactive: 4.9%
O=P1(Nc2ccccn2)COc2ccccc2OC1	inactive: -10.2%
CCOP(=O)(NC(=NC(C)c1ccccc1)NC(C)c1ccccc1)OCC (centres undefined)	inactive: 0.78%
Clc1n[nH]nc1-c1nn[nH][15n]1	inactive: 0.723%
O=P1(N(CCCl)CCCl)NCCC(C(F)(F)F)O1 (centres undefined)	inactive: 3.79%
CC(C)(C)C(=O)NC(Sc1ncccn1)C(Cl)(Cl)Cl (centres undefined)	inactive: 1.78%
CCCOP(=S)(Nc1nc(N)cc(=O)[nH]1)OCCC	inactive: 12.3%

SMILES	inhibition
Nc1cccc2c([As](=O)(O)O)cccc12	inactive: 6.13%
Cc1ccc(NCCc2c([N+](=O)[O-])cc([N+](=O)[O-])cc2[N+](=O)[O-])cc1	inactive: -8.06%
CCOP(=O)(Nc1cccc2ccccc12)OCC	inactive: -5.34%
O=[As](O)(O)c1cccnc1	inactive: 8.49%
COc1cc(C(=O)NCC2(N3CCOCC3)CCCCC2)cc(Cl)c1OC(C)C	inactive: 2.23%
CS(=O)(=O)c1ccc(Cl)c(NC(=O)COC(=O)C(O)(c2ccccc2)c2ccccc2)c1	inactive: 9.32%
O=C(OC1CN2CCC1CC2)c1ccc(Cl)cc1 (centres undefined)	inactive: -0.767%
O=[As](O)(c1cccc(O)c1)c1cccc(O)c1	inactive: -7.09%
NC(=O)Nc1ccc([As](=O)(O)O)cc1	inactive: -5.68%
CN(C)C(=O)c1cc([N+](=O)[O-])cc2c1-c1c(cc([N+](=O)[O-])cc1[N+](=O)[O-])C2=O	inactive: 0.749%
CN(C(=O)Cc1ccc(Cl)c(Cl)c1)[C@H]1CC[C@@]2(CCCO2)C[C@@H]1N1CCCC1	inactive: -5.13%
N#CCCN(C(=O)COC(=O)C(O)(c1ccccc1)c1ccccc1)c1ccc(F)cc1	inactive: 0.233%
O=P(Nc1nccs1)(Oc1ccccc1)Oc1ccccc1	inactive: -1.85%
O=C(O)COc1ccc([As](=O)(O)O)cc1[N+](=O)[O-]	inactive: 0.069%
Nc1ccccc1[As](=O)(O)c1ccccc1	inactive: -0.53%
COC(=O)C1(C)COP(=O)(N2CCCCCC2)OC1 (centres undefined)	inactive: -6.51%
CC(C)c1ccc(OP(=O)(Nc2ccccn2)Oc2ccccc2F)cc1 (centres undefined)	inactive: 4.97%
ClCCSc1nnc(-c2cccnc2)o1	inactive: 4.95%
CC(C)NC(=O)NP(=O)(Oc1ccccc1)Oc1ccccc1	inactive: -4.27%
O=C(OC1CN2CCC1CC2)c1cccc2[nH]cnc12 (centres undefined)	inactive: 8.1%
C[As](=O)(O)c1cccc(C(=O)O)c1	inactive: 5.08%
O=[As](O)(c1ccc(O)cc1)c1ccccc1O	inactive: -0.965%
O=[N+]([O-])c1ccc(-c2cc([N+](=O)[O-])c(O)c([N+](=O)[O-])c2)cc1	inactive: -3.45%
COc1cc(C(=O)NCC2(N3CCOCC3)CCCCC2)ccc1OCC(C)C	inactive: -7.35%
Cc1ccc2nc3c(c(C)c2c1)CC(C(Cl)Cl)S3 (centres undefined)	inactive: 19.8%
Cc1ccc(OP(=O)(Nc2ccc([N+](=O)[O-])cn2)Oc2ccc(C)cc2)cc1	inactive: -2.8%
[N-]=[N+]=NC1CCCCC1NC(=O)c1cc([N+](=O)[O-])cc([N+](=O)[O-])c1 (centres undefined)	inactive: 0.335%

SMILES	inhibition
COc1ccc(N/C(=N/P(=O)(N2CCOCC2)N2CCOCC2)N2CCOCC2)cc1	inactive: -2.76%
O=[N+]([O-])c1cc(Oc2ccc([N+](=O)[O-])cc2C(F)(F)F)cc([N+](=O)[O-])c1	inactive: 9.64%
Cc1cc(=O)[nH]c(N[N+](=O)[O-])n1	inactive: 5.53%
Cc1c2c(nc3ccccc13)SC(C(Cl)Cl)C2 (centres undefined)	inactive: 13.7%
COc1ccc2nc(NP(=O)(c3ccccc3)c3ccccc3)sc2c1	inactive: 5.26%
COc1cc(I)ccc1[As](=O)(O)O	inactive: 0.254%
O=P1(N(CCCl)CCCl)Nc2ccccc2N1	inactive: 1%
O=P1(N(CCCl)CCCl)OCCCN1CCCl (centres undefined)	inactive: 0.579%
CCOC(=O)c1ccc(NC(=O)C(C)(CCl)SC)cc1 (centres undefined)	inactive: -13.8%
O=C(OC1CN2CCC1CC2)c1cccc([N+](=O)[O-])c1 (centres undefined)	inactive: -0.853%
CCC(C)N(CC(C)C)C(=S)SC(NC(C)=O)C(Cl)(Cl)Cl (centres undefined)	inactive: -4.96%
COC(=O)C1(C)COP(=O)(N2CCCC2)OC1 (centres undefined)	inactive: 2.06%
O=C(COc1ccccc1)OC1CN2CCC1CC2 (centres undefined)	inactive: 0.565%
O=C(Nc1ccncc1[N+](=O)[O-])c1ccc([N+](=O)[O-])cc1[N+](=O)[O-]	inactive: 6.2%
O=C(O)C(=O)c1ccc(N(CCCl)CCCl)cc1	inactive: -2.84%
CCOC(=O)Nc1cccc([As](=O)(O)O)c1	inactive: 5.61%
O=[N+]([O-])c1ccc(Nc2ccc(Oc3ccc([N+](=O)[O-])cc3[N+](=O)[O-])cc2)c([N+](=O)[O-])c1	inactive: 2.22%
Cc1cc(SC(NC=O)C(Cl)(Cl)Cl)ncn1 (centres undefined)	inactive: 5.32%
O=P(Nc1ccccn1)(c1cccc2ccccc12)c1cccc2ccccc12	inactive: 7.41%
CC1CCNP(=O)(N(CCCl)CCCl)O1 (centres undefined)	inactive: -0.237%
O=C(O)C(O)c1ccc(N(CCCl)CCCl)cc1 (centres undefined)	inactive: 1.58%
CCOC(=O)Nc1ccc([As](=O)(O)O)c(O)c1	inactive: 9.39%
CCCCOc1ccc(C(=O)NCC2(N3CCCCC3)CCCCC2)cc1OC	inactive: 3.02%
Cc1cc(SC(NC(=O)c2ccccc2)C(Cl)(Cl)Cl)nc(C(C)C)n1 (centres undefined)	inactive: -2.86%
COP(=O)(OC)N1CC1c1ccccc1 (centres undefined)	inactive: -6.26%
